According to patent US10183949B2, “Pyrimidinone derivative having autotaxin-inhibitory activity” (The University of Tokyo, priority 2014, dated 2019):

Molecular target: Human autotaxin enzyme (Homo sapiens, UniProt Q13822)
Assay: Evaluation of autotaxin inhibitor, 18:0 Lyso PC / choline assay (Test Example 2)
Conditions: read-out: Inhibitor activity (IC50), 18:0 Lyso PC substrate, room temperature 2 hours
Method: Solution B containing 100 mM Tris-HCl buffer (pH7.5), 150 mM NaCl, 5 mM MgCl2, and 0.05% Triton X-100 was prepared. Human autotaxin enzyme (purchased from R&D System) was diluted with Solution B, and 2.5 μl of which was added to a solution of test compound in DMSO. Furthermore, 2.5 μl of 200 μM 18:0 Lyso PC (purchased from Avanti Polar Lipids) in Solution B was added and allowed to react at room temperature for 2 hours. After completion of the reaction, 15 μl of the coline assay reagent. (100 mM Tris-HCl buffer (pH7.5), 5 mM. MgCl2, 77 μg/ml coline oxidase, 10 μg/ml peroxydase, 25μM 10-acetyl-3,7-dihydroxyphenoxazine, and excess autotaxin inhibitor) was added and allowed to react at room temperature for 20 minutes. The fluorescent dye Resorufin, which was produced by the reaction, was detected. The fluorescence was detected using ViewLux
(PerkinElmer, Inc.) with a excitation wavelength of 531 nm and a fluorescence wavelength of 598 nm.
The percent inhibition of the test compound was calculated by assuming the sample with no test compound as 0% inhibition and the sample with no enzyme as 100% inhibition, and the percent inhibitions at different concentrations of the test compound were plotted to obtain a concentration-dependent curve.

Compound | IC50
CCCCCNc1nc(-c2ccc(C(F)(F)F)cc2)cc(=O)n1Cc1ccc(C(=O)NCCC(=O)O)cc1 | 100 to 1000 nM
CC(C)(C)C(=O)Nc1cc(Cl)ccc1-c1cc(=O)n(CC(=O)NCc2c[nH]nn2)cn1 | 10 to 100 nM
Cc1nc(-c2ccc(Cl)cc2NC(=O)C2CC2)cc(=O)n1CC(=O)N1CCN(C(N)=O)CC1 | 10 to 100 nM
CCCCNc1nc(-c2ccc(OC(F)(F)F)cc2CC#N)cc(=O)n1Cc1ccccc1 | 100 to 1000 nM
CC(C)(C)C(=O)Nc1cc(Cl)ccc1-c1cc(=O)n(CC(=O)N2CCC(O)CC2)cn1 | 100 to 1000 nM
CC(C)(C)C(=O)Nc1cc(Cl)ccc1-c1cc(=O)n(CC(=O)Nc2ccnc(O)c2)cn1 | 100 to 1000 nM
CC(C)(C)C(=O)Nc1cc(Cl)ccc1-c1cc(=O)n(CC(=O)Nc2cccnc2O)cn1 | 100 to 1000 nM
CCCCNc1nc(-c2cc(F)ccc2CNC(=O)OC(C)(C)C)cc(=O)n1Cc1ccccc1 | > 1000 nM
CC(C)(C)C(=O)Nc1cc(Cl)ccc1-c1cc(=O)n(CC(=O)N2CCC3(COC3)C2)cn1 | > 1000 nM
